# The other results are listed elsewhere or left out. Results with a measured potency or affinity are listed apart. Activity calls are given as the source filed them. Rule as the data show it: active = activation above about 50% (passing the limit was not always enough); inactive = the rest.
# Chains of the proteins cited; added tags and fusions are not shown. Lines headed by an entry give the natural chain unless they say otherwise; changes in a name come on top.
# UniProt P41145: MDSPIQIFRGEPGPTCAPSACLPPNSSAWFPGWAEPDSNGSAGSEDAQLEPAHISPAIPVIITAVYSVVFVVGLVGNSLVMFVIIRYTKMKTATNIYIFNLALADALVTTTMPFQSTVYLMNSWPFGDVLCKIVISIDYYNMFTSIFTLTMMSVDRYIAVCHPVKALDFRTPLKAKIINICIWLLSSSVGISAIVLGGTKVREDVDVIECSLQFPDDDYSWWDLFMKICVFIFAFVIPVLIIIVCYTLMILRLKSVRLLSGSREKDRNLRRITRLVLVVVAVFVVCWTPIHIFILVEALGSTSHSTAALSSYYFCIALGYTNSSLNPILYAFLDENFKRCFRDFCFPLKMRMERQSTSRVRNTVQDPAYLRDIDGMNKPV
# Target: Kappa-type opioid receptor (Homo sapiens) (UniProt P41145)
# Experiment: kappa opioid receptor activators – cell-based, luminescence, uHTS, primary screen (AID 1777)
# Details: KOR beta-arrestin recruitment, at 10 µM, active compounds read high
row,SMILES,activation
1,Cn1c(=O)c2c(ncn2CC(=O)Nc2ccc(Cl)cc2Cl)n(C)c1=O,inactive: 2.7%
2,Cn1c(=O)[nH]c(=O)c2c1nc(CN1CCN(c3cccc(Cl)c3)CC1)n2CCN1CCOCC1,inactive: -4.1%
3,O=C(Cn1c(-c2ccccc2Cl)nc2ccccc21)Nc1cccc(Cl)c1,inactive: 2.5%
4,Cn1c(=O)c2ncn(CC(=O)NCCOCc3ccccc3Cl)c2n(C)c1=O,inactive: -3%
5,Cn1c(=O)c2c(ncn2CC(=O)Nc2ccccc2Sc2ccccc2)n(C)c1=O,inactive: 6.6%
6,Nc1cccc([As](=O)(O)c2ccccc2)c1,inactive: -1.8%
7,CCOCN(C(=O)Cn1c(COC)nc2ccccc21)c1c(C)cccc1CC,inactive: -2.7%
8,Cn1c(CNc2nc3ccccc3n2CCN2CCCCC2)nc2ccccc21,inactive: 1.7%
9,Cc1ccc2c(c1)C1CN(C)CCC1N2C(=O)Cn1nnc(-c2ccccc2F)n1 (stereo not given),inactive: 1.1%
10,Cc1cc(NC(=O)Cn2cnc3c2c(=O)n(C)c(=O)n3C)n(-c2ccccc2)n1,inactive: -3.7%
11,O=C(NCCn1c(-c2ccncc2)nc2ccccc21)[C@H]1CCCN1c1nc(CN2CCCCC2)cs1,inactive: -2.9%
12,CC(C)C[C@H](NC(=O)N1CCn2c1nc1ccccc12)C(=O)NCc1ccco1,inactive: -1.3%
13,O=P1(Nc2ccc(Br)cn2)COc2ccccc2OC1,inactive: -3.2%
14,Cc1ccc2c(c1)C1CN(C)CCC1N2C(=O)c1ccccc1NS(=O)(=O)c1ccc(F)cc1C (stereo not given),inactive: 10.6%
15,O=[As](O)(c1cccs1)c1cccs1,inactive: -1.8%
16,Cc1ccc(C(=O)N(C)c2ccc(OCC(=O)N3c4ccc(C)cc4C4CN(C)CCC43)cc2)cc1 (stereo not given),inactive: 2.2%
17,Cc1ccc(OCC(=O)OC2CN3CCC2CC3)cc1 (stereo not given),inactive: -3.7%
18,CCc1ccccc1NC(=O)CSc1nc2ccccc2n1CC(=O)N1CCCC1,inactive: -4.3%
19,CCC(=O)N1CCn2c1nc1ccccc12,inactive: 3.1%
20,CCN(CC)c1ccc(NC(=O)Cn2c(C(C)NC(=O)c3ccccc3)nc3ccccc32)cc1 (stereo not given),inactive: 0.9%
21,Cc1ccc(C(=O)OC2CN3CCC2CC3)cc1 (stereo not given),inactive: -3.1%
22,CC1CCC(C(C)C)C(OP(=O)(Nc2ccccn2)c2ccccc2)C1 (stereo not given),inactive: 2.2%
23,CCN(CC)C(=O)Cn1c(=O)n(C)c2ccccc21,inactive: 0.6%

row,SMILES,activation
1,Cc1nn(-c2ccccc2)c2c1P(=O)(N1CCOCC1)N(C)C(c1ccccc1)=N2 (stereo not given),inactive: -0.2%
2,Cc1cccc(Cn2c(=O)c3c(nc4n3CCN4Cc3ccco3)n(C)c2=O)c1,inactive: -1.7%
3,O=C(Cn1c(C(F)(F)F)nc2ccccc21)NCCN1CCCC1,inactive: 1%
4,Cc1cccc(C)c1NC(=O)N1CCC(n2c(=O)[nH]c3ccccc32)CC1,inactive: 0.5%
5,c1ccc2c(c1)nc(-c1ccncc1)n2CCNc1nc(CN2CCCCC2)cs1,inactive: -2.5%
6,CCCC(=O)Nc1ccc(C(=O)/C=C/c2ccc(SC)cc2)cc1,inactive: -2.4%
7,CCn1cc(Cl)c(C(=O)Nc2nc3ccccc3n2CCN2CCCCC2)n1,inactive: -1.7%
8,O=C(Cn1c(=O)n(CC2CS2)c2ccccc21)N1CCCCCC1 (stereo not given),inactive: -9.9%
9,CC(C)(C)NC(=O)Cn1c(SCC(=O)NCc2cccs2)nc2ccccc21,inactive: 8.1%
10,O=C(Cn1c(SCC(=O)N2CCc3ccccc32)nc2ccccc21)NC1CCCC1,inactive: 18.3%
11,O=C(Cn1cnc2ccccc21)Nc1cc(C(F)(F)F)ccc1N1CCOCC1,inactive: 14.6%
12,COc1cc2c(cc1NC(=O)Cn1cnc3c1c(=O)n(C)c(=O)n3C)oc1ccccc12,inactive: -1.6%
13,COc1ccc(Cl)cc1NC(=O)Cn1c(NCCO)nc2ccccc21,inactive: 2.4%
14,O=C(Cn1c(COc2ccccc2)nc2ccccc21)Nc1cc(Cl)c(Cl)cc1Cl,inactive: 8.6%
15,CCN1C(=O)CC(N2CCC(Nc3ccc(OC)cc3)CC2)C1=O (stereo not given),inactive: -4.2%
16,CC(=O)Nc1ccc(NC(=O)C2CC(=O)Nc3nc4ccccc4n32)cc1 (stereo not given),inactive: -1.9%
17,O=C(CSc1nc2ccccc2n1CC(=O)NCc1ccccc1)NCc1ccco1,inactive: 3.4%
18,Cn1c(=O)c2ncn(CC(=O)NCCOc3ccc(C(C)(C)C)cc3)c2n(C)c1=O,inactive: -1.5%
19,O=S(=O)(c1ccc(Br)cc1)N1CCn2c(nc3ccccc32)C1,inactive: -1.1%
20,Cn1c(=O)c2c(ncn2CC(=O)N/N=C/C=C/c2ccccc2)n(C)c1=O,inactive: -4.4%
21,O=S(=O)(c1ccc(Cl)c(Cl)c1)N1CCc2nc3ccccc3n2CC1,inactive: -1.3%
22,CC1CC(C)CN(Cc2nc3c(c(=O)n(C)c(=O)n3C)n2CCN2CCOCC2)C1 (stereo not given),inactive: 6.4%
23,O=S(=O)(Nc1ccc2c(c1)nc1n2CCN(Cc2ccccc2)C1)c1ccccc1,inactive: -5.2%

row,SMILES,activation
1,O=C(/C=C/c1ccccc1)OC1CN2CCC1CC2 (stereo not given),inactive: 0.7%
2,COc1cccc(NC(=O)Cn2c(SCC(=O)N3CCOCC3)nc3ccccc32)c1,inactive: -4.6%
3,COc1ccc(Cc2nc3ccccc3n2CC(=O)N/N=C/c2ccc(C)cc2O)cc1OC,inactive: -0.8%
4,CCN(c1ccccc1)S(=O)(=O)c1ccc(OC)c(NC(=O)Cn2cnc3c2c(=O)n(C)c(=O)n3C)c1,inactive: -5.9%
5,CCc1cccc(NC(=O)Cn2c3[n+](c4ccc(C(F)(F)F)cc42)CCCCC3)c1,inactive: 4.7%
6,Cn1c(=O)n(Cc2ccccc2F)c(=O)c2c1nc1n2CCN1Cc1ccco1,inactive: 1%
7,COc1cccc(NC(=S)N2CCn3c(nc4ccccc43)C2)c1,inactive: 7.8%
8,CC(C)C[C@H](NC(=O)N1CCn2c1nc1ccccc12)C(=O)NCc1ccc2c(c1)OCO2,inactive: -3.5%
9,N=c1n(CCN2CCCCC2)c2ccccc2n1CC(O)c1cccc(Br)c1 (stereo not given),inactive: 4.4%
10,Cc1ccc(OCC(O)Cn2c(=N)n(CCN3CCCCC3)c3ccccc32)cc1 (stereo not given),inactive: 0.8%
11,CCN(CC)CCn1c(NCc2ccco2)nc2ccccc21,inactive: -0.8%
12,Cc1nc2ccccc2n1CC(=O)N/N=C\C=C\c1ccccc1,inactive: -0.9%
13,Cn1c(=O)c2ncn(CC(=O)N/N=C/C=C/c3ccccc3)c2n(C)c1=O,inactive: -0.5%
14,CCN(CC)c1ccc(CNc2nc3ccccc3n2CCN2CCCCC2)cc1,inactive: -1.5%
15,COc1ccccc1C(=O)Nc1ccc2c(c1)nc1n2CCN(Cc2ccccc2)C1,inactive: -3.8%
16,COc1cc(OC)cc(C(=O)OCCNC(=O)Cn2cnc3c2c(=O)n(C)c(=O)n3C)c1,inactive: -3.3%
17,Cc1ccc2c(c1)C1CN(C)CCC1N2C(=O)c1cccc(S(=O)(=O)N2CC(C)CC(C)C2)c1 (stereo not given),inactive: -2.7%
18,COc1ccc(N(C(=O)Cn2cnc3ccccc32)C(C(=O)NC2CCCCC2)c2ccccc2)cc1 (stereo not given),inactive: -0.5%
19,Cc1ccc(NC(=O)C2CC(=O)Nc3nc4ccccc4n32)c(C)c1 (stereo not given),inactive: -1.1%
20,O=C(CCNC(=O)N1CCn2c1nc1ccccc12)NCc1ccccc1,inactive: -3.5%
21,Cn1c(=O)c2c(nc(N3CCCCC3)n2CCNC2=NCCC2)n(C)c1=O,inactive: -1.9%
22,O=C(Cn1c(CO)nc2ccccc21)NCc1ccc2c(c1)OCO2,inactive: -0.6%
23,Cc1cccc(N2CCN(C(=O)Cn3cnc4c3c(=O)n(C)c(=O)n4C)CC2)c1C,inactive: -2.2%

row,SMILES,activation
1,O=C(Cn1c(COc2ccc(Cl)cc2)nc2ccccc21)NCC(F)(F)F,inactive: -5%
2,CCN(CC)CCn1c(NC(=O)c2ccc(C)cc2)nc2ccccc21,inactive: 31.7%
3,CC(C)/C=N\N=C(\N)N[N+](=O)[O-],inactive: -2.1%
4,COc1ccc(CCNC(=O)CCCCCNC(=O)N2CCn3c2nc2ccccc23)cc1OC,inactive: 3.1%
5,O=C(Nc1nc2ccccc2n1CCN1CCOCC1)c1ccc(COc2ccccc2Br)o1,inactive: 1.7%
6,CN(C)CCCNC(=S)N1CCn2c(nc3ccccc32)C1,inactive: 0.6%
7,CCOC(=O)Cn1c(=O)c2c(nc3n2CCN3c2ccc(C)cc2)n(C)c1=O,inactive: -3%
8,Fc1ccc(Cn2nnnc2CN2CCC(n3nnc4cc(C(F)(F)F)ccc43)CC2)cc1,inactive: 0.3%
9,Brc1ccc(/C=N/c2nc3ccccc3n2CCN2CCOCC2)cc1,inactive: 1.2%
10,COCCN(C(=O)Cn1c(C(F)(F)F)nc2ccccc21)c1c(N)n(Cc2ccccc2)c(=O)[nH]c1=O,inactive: -3%
11,c1coc(CNc2nc3ccccc3n2CCN2CCOCC2)c1,inactive: 6.3%
12,O=[As](O)(c1ccccc1Br)c1ccccc1Br,inactive: -0.1%
13,O=C(CCCCCNC(=O)N1CCn2c1nc1ccccc12)N[C@H](Cc1ccccc1)C(=O)O,inactive: 3.6%
14,O=C(Nc1nc2ccccc2n1CCN1CCCCC1)c1ccc(Cl)cc1,inactive: 0.1%
15,CC1CN(C(=O)Cn2c(C(F)(F)F)nc3ccccc32)CC(C)O1 (stereo not given),inactive: -3.2%
16,CCCCNC(=O)CC1C(=O)N(Cc2ccccc2)C(C)c2nc3ccccc3n21 (stereo not given),inactive: 7.2%
17,Cn1c(=O)c2c(ncn2CC(=O)N2CCN(c3ccc(F)cc3)CC2)n(C)c1=O,inactive: 0.8%
18,O=C(Cn1c(SCc2ccccc2)nc2ccccc21)N1CCOCC1,inactive: 1.6%
19,Cc1cc(C)cc(NC(=O)Cn2c(SCc3cc(C)ccc3C)nc3ccncc32)c1,inactive: 3.8%
20,CCOP(=O)(NC(=NC(C)c1ccccc1)NC(C)c1ccccc1)OCC (stereo not given),inactive: 1.7%
21,CC(NC(=O)Cn1c(NCCO)nc2ccccc21)C1CC2CCC1C2 (stereo not given),inactive: -5.2%

# From PubChem BioAssay AID1777 (Sanford-Burnham Center for Chemical Genomics, 2009)
